## Yeast mating assay 1: variants of the scFv Ab-14

All variants were tested on one target, the spike HR2 peptide PDVDLGDISGINAS (SARS-CoV-2).

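The parent was found by panning a naive human phage display library on the peptide. AAYL49 was designed without a model: most single CDR substitutions and a random sample of double and triple ones. The scFvs were displayed on barcoded MATa yeast, the peptide on MATalpha yeast. After mating in shaken culture at 30 °C for 16 h, diploids were selected and their barcode pairs sequenced. The ratio of observed to expected reads was calibrated, replicate by replicate, on BCL2-family standards whose Kd was known from biolayer interferometry. The assay was run in three technical replicates.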

Ab-14 is the parent antibody, in scFv form: VH, then the linker GGGGSGGGGSGGGGS, then VL. The light chain is unchanged in all variants.
VH: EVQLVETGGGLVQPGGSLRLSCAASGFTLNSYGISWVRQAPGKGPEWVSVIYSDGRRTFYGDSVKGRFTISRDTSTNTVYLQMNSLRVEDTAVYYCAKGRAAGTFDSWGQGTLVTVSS
VL: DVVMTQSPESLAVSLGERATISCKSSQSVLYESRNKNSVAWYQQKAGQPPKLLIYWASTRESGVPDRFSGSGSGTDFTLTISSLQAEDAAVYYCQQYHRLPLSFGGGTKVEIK

The parent's heavy chain CDRs are GFTLNSYGIS, VIYSDGRRTFYGDSVK, GRAAGTFDS; each variant's own CDRs replace them letter for letter. Affinities are written as log10 Kd with Kd in nM; a lower number is a better binder. The mean shown is taken over the replicates in which the pair was detected. A pair that was not seen in that replicate is written "ND"; this usually means weak binding, but a binder can also be missed. Parent in this assay: reference entry 0.65, copy in this library 4.11 (one replicate of three). Nonspecific signal, from three strains lacking the peptide, appeared in 15% of pairings of library AAYL49, centred on 4.06 (5% of these signals below 2.83); values are not corrected for it.

CDR-H1	CDR-H2	CDR-H3	replicates, log10 nM	mean log10 Kd (nM)
GFTLNSYGPS	VIYIDGRRTFYNDSVK	GRAAGTFDS	5.13 / 3.00 / 4.71	4.28
GFTLNSYGIS	VIYSDGRRTFYGDNVK	GRADGTMDS	1.30 / 1.52 / 1.79	1.54
GTTLNSYGIM	VIYSDGRYTFYGDSVK	GRAAGTFDS	ND / ND / 4.48	4.48
NFTLNSYGIS	VISSGGRRTFYGDSVK	GRAAGTFDS	5.66 / 4.31 / 4.37	4.78
GFTLNSYGIS	VIYRQGRRTFYGDGVK	GRAAGTFDS	ND / ND / ND	ND
EFTMNSYGIS	VIYSDGRRTFYGDSVK	GRAAGTFDS	1.27 / 1.33 / 1.37	1.33
GFTLNSYGID	VIYYDGRRTFYGDSVK	GRAAGTFDS	ND / ND / ND	ND
GFTLNSYGIS	VRYSDGRRTFYGDVVG	GRAAGTFDS	ND / ND / ND	ND
GFTPNSYGES	VIYSDGRRTFYGDSVK	GRAAGTFDM	ND / ND / ND	ND
GFTLNSPGIS	VSYSEGRRTFYGDSVK	GRAAGTFDS	ND / ND / ND	ND
GFTLNSYGIS	NIYSDGRRTCYGDSVK	GRAVGTFDS	ND / ND / ND	ND
GFTANSYGIS	VIYSDGRRTFYGDSVK	GEAHGTFDS	ND / 4.57 / 4.17	4.37
QFTLTSYGIS	VIYSDGRRTFYGDSVK	GRATGTFDS	ND / ND / ND	ND
GFTLNSYGIS	VIYSEGRRTFYGDSVK	GRAWGTFDH	ND / 4.07 / ND	4.07
GFTLNSYGIS	VIYSDGRRTFYGDSVE	GRADKTFDS	2.80 / 2.78 / 2.98	2.85
DFTLNSYGIS	VIYSDGRRAKYGDSVK	GRAAGTFDS	ND / ND / 3.80	3.80
GFTLNSYGNS	VIYSDGRRTFYGDSYK	GRAAGTFDS	ND / ND / ND	ND
GFTLNSYGIS	VIGSDGRHTFYGDSVK	GRAAGTWDS	ND / ND / ND	ND
HFTLNRYGIS	VIYSDGRRTDYGDSVK	GRAAGTFDS	ND / 2.68 / ND	2.68
GFTYNSYGIS	VIYSDGRRTFYGDSVK	ERAADTFDS	ND / ND / ND	ND
GGTLYNYGIS	VIYSDGRRTFYGDSVK	GRAAGTFDS	2.11 / ND / 2.32	2.21
GSTLNSYGIS	VIYSDDRRTIYGDSVK	GRAAGTFDS	ND / ND / ND	ND
GFTLNSYGIS	VPYMDGRRTWYGDSVK	GRAAGTFDS	ND / ND / ND	ND
GFTLNSYGIS	VIYSDGRWWFYGDSDK	GRAAGTFDS	5.05 / 4.28 / 3.59	4.31
GFTLNSYGIS	VIYSDGRSTFYGDKVK	GRAAGTSDS	ND / 3.36 / ND	3.36
GFTLNSYGRS	VIYSDGRRTFKGDSVK	GRAAGTFDV	ND / ND / ND	ND
GFTLPSYGIS	VIYSDGMRTFYGDSVK	GRAAGMFDS	5.36 / 4.54 / ND	4.95
GFTLNSYGIS	VIESDGRRTFYGYSVK	GHAAGTFDS	ND / 4.62 / ND	4.62
GFTLNSYGDS	VIYSDGRSTFYGDSVD	GRAAGTFDS	ND / ND / ND	ND
GFTLNSRGIS	VRYSDGRRWFYGDSVK	GRAAGTFDS	ND / ND / ND	ND
IFTLNSYGIS	VIYIDGRRTFYGDSVK	GRAAGTKDS	ND / ND / ND	ND
GFTLNSYGIS	VIYSDGRRTYYGDCVT	GRAAGTFDS	2.51 / 1.97 / 2.45	2.31
GFTLNSYGIS	VIYSDGRRTFYGDSVK	QQHAGTFDS	3.68 / ND / ND	3.68
GFTLNSYGIA	VIYSDGRRTFYTDVVK	GRAAGTFDS	ND / ND / ND	ND
GFTLNSYGIS	VIYSDGRRTFTGDSVT	GRAAGTKDS	ND / ND / ND	ND
GFTLNSDGIS	VIYADGRRTFYGDSVK	YRAAGTFDS	4.27 / ND / 5.26	4.76

For reference, 2 entries of the list once more:

CDR-H1	CDR-H2	CDR-H3	replicates, log10 nM	mean log10 Kd (nM)
GFTLNSYGIS	VRYSDGRRTFYGDVVG	GRAAGTFDS	ND / ND / ND	ND
GFTLNSRGIS	VRYSDGRRWFYGDSVK	GRAAGTFDS	ND / ND / ND	ND

Values reported by Engelhart et al. 2022, doi:10.1038/s41597-022-01779-4 (FLAb copy).